Data on 1 compound can be found in article PMC11694061 (Cancer Research, 2024).

In this experiment the test system is KU812 cells. In words: Proliferation, KU812. It counts as cell-based. The settings on record: Homo sapiens, KU812, 72 h, read-out: IC50 KU812. Here is the method:
Cells were inoculated onto 96-well plates and treated with compounds in serial dilutions for 3 or 5 days. […] The cell viability of primary patient samples was tested using the CellTiter-Glo Luminescent Assay kit (G7573, Promega) according to the manufacturer’s instructions. […] The optical density (OD) values were obtained using a SPARK microplate reader (Tecan). IC50 was calculated using GraphPad Prism 8.0.2 (nonlinear regression analysis with four parameters). Drug synergy was evaluated with combination index (CI) values using CalcuSyn Demo Version 2.0 software. CI > 1 indicates antagonism, CI < 1 indicates synergy, and CI = 1 indicates additivity.

With `COc1cc2nc(C)nc(N[C@H](C)c3cc(N)cc(C(F)(F)F)c3)c2cc1O[C@H]1CCOC1` [BI-3406], the IC50 worked out at 0.0232 ± 0.0143 µM.
